Columns and labels:
[1] = molecular target: EcGUS (Escherichia coli GUS) (Escherichia coli, UniProt P05804); assay: GUS inhibition assay, hydrolysis of 4-methylumbelliferyl-β-glucuronide, EcGUS; type: biochemical; conditions: ratio of Ki HsGUS / EcGUS
[2] = molecular target: BdGUS (Bifidobacterium dentium GUS) (Bifidobacterium dentium, UniProt D2Q7B1); conditions: more potent than for HsGUS
[3] = molecular target: LgGUS (Lactobacillus gasseri GUS) (Lactobacillus gasseri, UniProt Q9AHJ8); assay: GUS inhibition assay, hydrolysis of 4-methylumbelliferyl-β-glucuronide, LgGUS; type: biochemical; conditions: more potent than for HsGUS

By UniProt entry, the sequences of proteins in these tests, tags left out. Where a name states a change or a piece, a line headed by the entry shows the natural chain unless it says otherwise. Residues count along the entry.
UniProt P05804: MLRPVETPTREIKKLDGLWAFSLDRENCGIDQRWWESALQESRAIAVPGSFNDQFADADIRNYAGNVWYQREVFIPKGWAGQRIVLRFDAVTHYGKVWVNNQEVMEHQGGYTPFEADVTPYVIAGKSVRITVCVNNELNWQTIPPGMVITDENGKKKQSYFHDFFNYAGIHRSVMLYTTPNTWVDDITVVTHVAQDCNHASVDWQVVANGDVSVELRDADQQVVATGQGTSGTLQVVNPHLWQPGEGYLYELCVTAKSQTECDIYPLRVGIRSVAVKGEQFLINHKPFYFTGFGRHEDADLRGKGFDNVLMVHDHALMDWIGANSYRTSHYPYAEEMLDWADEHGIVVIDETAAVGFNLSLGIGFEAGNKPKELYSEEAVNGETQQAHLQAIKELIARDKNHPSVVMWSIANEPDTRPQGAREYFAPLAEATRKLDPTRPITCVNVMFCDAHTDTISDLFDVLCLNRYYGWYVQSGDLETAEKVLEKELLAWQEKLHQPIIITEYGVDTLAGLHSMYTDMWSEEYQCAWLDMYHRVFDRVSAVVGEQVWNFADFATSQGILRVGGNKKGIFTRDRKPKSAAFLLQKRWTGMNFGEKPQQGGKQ
UniProt D2Q7B1, 1-668: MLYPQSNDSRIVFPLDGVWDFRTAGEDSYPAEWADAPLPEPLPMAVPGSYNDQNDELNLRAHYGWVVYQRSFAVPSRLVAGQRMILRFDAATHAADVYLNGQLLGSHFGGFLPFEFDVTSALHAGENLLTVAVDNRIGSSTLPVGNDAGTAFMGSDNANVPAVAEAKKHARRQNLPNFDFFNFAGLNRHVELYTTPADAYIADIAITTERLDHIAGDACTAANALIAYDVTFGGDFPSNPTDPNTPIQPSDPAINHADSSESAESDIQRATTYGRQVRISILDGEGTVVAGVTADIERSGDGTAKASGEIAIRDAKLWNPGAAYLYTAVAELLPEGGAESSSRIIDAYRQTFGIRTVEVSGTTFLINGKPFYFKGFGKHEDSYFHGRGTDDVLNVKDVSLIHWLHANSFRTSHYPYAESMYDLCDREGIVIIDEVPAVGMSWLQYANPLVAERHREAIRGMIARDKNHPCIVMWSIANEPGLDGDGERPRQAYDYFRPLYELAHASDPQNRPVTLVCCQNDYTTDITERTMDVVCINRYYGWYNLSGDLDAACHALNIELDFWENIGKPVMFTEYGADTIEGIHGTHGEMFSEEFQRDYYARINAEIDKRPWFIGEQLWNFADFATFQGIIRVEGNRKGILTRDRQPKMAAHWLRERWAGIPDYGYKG
UniProt Q9AHJ8, 1-598: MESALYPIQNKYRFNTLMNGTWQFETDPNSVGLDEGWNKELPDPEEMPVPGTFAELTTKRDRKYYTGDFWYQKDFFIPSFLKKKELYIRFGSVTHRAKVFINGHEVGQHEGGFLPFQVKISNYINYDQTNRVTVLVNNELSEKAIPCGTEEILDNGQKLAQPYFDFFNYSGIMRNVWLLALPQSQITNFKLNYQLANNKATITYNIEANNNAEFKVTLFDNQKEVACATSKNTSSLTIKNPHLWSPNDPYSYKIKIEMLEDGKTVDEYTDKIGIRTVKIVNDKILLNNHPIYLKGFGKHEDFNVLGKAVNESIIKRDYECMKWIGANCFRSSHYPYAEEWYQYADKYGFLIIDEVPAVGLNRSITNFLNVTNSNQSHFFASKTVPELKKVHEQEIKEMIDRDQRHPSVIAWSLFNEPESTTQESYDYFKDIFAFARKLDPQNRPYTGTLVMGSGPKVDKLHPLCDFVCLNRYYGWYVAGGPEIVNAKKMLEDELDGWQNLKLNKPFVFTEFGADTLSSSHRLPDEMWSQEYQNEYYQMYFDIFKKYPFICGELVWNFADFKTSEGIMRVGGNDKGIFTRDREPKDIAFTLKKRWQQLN

CCCCCC[C@@H]1NC[C@@H](O)[C@H](O)[C@H]1C(=O)O
selectivity for EcGUS over HsGUS [1]: 1770 fold

CCCCCCCCC[C@@H]1NC[C@@H](O)[C@H](O)[C@H]1C(=O)O [Inhibitor 4, C6-nonyl UIFG]
selectivity for BdGUS over HsGUS [2]: 240 fold | selectivity for EcGUS over HsGUS [1]: 23,300 fold | selectivity for LgGUS over HsGUS [3]: 390 fold

Source: article PMC7933434, “Entropy-driven binding of gut bacterial β-glucuronidase inhibitors ameliorates irinotecan-induced toxicity” (Communications Biology, 2021)
